Measurements published in ChEMBL document CHEMBL5584250, “5-HT6 receptor neutral antagonists protect astrocytes: A lesson from 2-phenylpyrrole derivatives” (Eur J Med Chem, 2024).
The source made the active and inactive calls. No cut-off for these calls is given here.

Sequences of proteins named here, by UniProt entry; tags and fusion partners are left off. A change or cut given only in a name is not applied to a line headed by its entry.
UniProt P50406, whole entry: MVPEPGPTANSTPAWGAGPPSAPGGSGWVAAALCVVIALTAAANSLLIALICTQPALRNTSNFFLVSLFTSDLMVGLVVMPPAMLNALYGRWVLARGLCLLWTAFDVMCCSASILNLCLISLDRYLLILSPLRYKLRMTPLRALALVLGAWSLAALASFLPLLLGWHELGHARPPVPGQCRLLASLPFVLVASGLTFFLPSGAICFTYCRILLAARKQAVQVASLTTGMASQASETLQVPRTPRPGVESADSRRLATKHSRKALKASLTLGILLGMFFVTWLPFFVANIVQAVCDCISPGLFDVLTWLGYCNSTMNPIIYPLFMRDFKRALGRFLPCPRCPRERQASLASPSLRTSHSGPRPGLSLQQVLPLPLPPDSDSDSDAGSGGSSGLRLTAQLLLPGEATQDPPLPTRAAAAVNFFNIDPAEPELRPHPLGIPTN
UniProt P35462, whole entry: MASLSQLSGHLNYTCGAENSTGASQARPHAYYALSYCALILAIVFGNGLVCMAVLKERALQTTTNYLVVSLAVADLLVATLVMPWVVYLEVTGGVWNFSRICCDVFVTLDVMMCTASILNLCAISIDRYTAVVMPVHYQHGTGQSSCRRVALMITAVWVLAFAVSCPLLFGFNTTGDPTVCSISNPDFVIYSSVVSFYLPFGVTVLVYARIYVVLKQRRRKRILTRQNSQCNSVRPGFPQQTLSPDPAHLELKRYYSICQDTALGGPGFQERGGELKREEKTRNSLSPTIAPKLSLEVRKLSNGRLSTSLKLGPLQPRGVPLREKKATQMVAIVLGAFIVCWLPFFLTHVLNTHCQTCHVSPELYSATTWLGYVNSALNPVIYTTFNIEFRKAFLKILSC
UniProt Q9Y5N1: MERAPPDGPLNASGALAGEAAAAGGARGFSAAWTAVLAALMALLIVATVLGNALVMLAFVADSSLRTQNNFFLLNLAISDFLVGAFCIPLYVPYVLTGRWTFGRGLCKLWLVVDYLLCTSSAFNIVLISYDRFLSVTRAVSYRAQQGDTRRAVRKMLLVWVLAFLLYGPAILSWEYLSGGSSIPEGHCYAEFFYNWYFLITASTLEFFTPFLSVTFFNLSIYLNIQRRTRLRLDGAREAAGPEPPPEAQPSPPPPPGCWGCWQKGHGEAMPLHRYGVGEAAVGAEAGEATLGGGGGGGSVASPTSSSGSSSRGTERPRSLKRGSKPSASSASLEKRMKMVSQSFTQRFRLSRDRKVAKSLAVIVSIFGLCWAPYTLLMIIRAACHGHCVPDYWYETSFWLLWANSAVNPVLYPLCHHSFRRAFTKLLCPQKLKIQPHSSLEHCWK
UniProt Q99720, whole entry: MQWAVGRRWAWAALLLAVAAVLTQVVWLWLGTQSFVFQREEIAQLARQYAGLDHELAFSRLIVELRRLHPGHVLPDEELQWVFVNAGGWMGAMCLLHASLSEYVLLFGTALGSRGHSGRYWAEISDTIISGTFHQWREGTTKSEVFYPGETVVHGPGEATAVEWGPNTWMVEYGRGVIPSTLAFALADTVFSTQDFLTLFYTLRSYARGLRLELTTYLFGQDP

Columns and labels:
[1] = molecular target: T1, 5-hydroxytryptamine receptor 6 (Homo sapiens, UniProt P50406); experiment: Neutral antagonist activity at human 5HT-6 receptor expressed in human NG108-15 cells coexpressing CAMYEL probe assessed as constitutive activity of receptor at Gs signaling by BRET analysis; assay type: functional, cell-based; settings: filed as antagonist
[2] = molecular target: T1, 5-hydroxytryptamine receptor 6; experiment: Antagonist activity at human 5-HT6 receptor expressed in recombinant human 1321N1 cells assessed as inhibition of 5-carboxamidotryptamine stimulated cAMP accumulation incubated for 30 mins by TR-FRET assay; assay type: functional, cell-based; settings: filed as antagonist
Astrocyte [3] = experiment: (§1) Cytoprotective activity against rotenone-induced toxicity in human astrocytes assessed as increase in cell viability at […] pretreated for 3 hrs followed by replacement with fresh media and rotenone addition and measured after 24 hrs by MTT assay; assay type: functional, cell-based; settings: dose 0.25 µM
[4] = molecular target: T1, 5-hydroxytryptamine receptor 6; experiment: Inverse agonist activity at YFP-tagged 5-HT6R (unknown origin) transfected in human NG108-15 cells assessed as inhibition of 5-HT6R-operated cdk5 signaling by measuring reduction in neurite length at 10 nM incubated for 24 hrs by epifluorescence based microscopic analysis; assay type: functional, cell-based; settings: filed as inverse agonist
Astrocyte [5] = experiment: Cytoprotective activity against rotenone-induced toxicity in human astrocytes assessed as increase in cell membrane integrity at […] pretreated for 3 hrs followed by replacement with fresh media and rotenone addition and measured after 24 hrs by cytotox-glo assay; assay type: functional, cell-based; settings: dose 0.25 µM
PC-12 = experiment: Cytoprotective activity against amyloid beta (25 to 35 residues)-induced toxicity in rat PC-12 cells assessed as increase in cell viability at […] pretreated for 3 hrs followed by replacement with fresh media and amyloid beta (25 to 35 residues) addition and measured after 24 hrs by MTT assay; assay type: functional, cell-based; settings: dose 0.25 µM
C8-D1A [6] = experiment: Cytoprotective activity against rotenone-induced toxicity in mouse C8D1A cells assessed as increase in cell viability at […] pretreated for 3 hrs followed by replacement with fresh media and rotenone addition and measured after 24 hrs by MTT assay; assay type: functional, cell-based; settings: dose 0.25 µM
SH-SY5Y = experiment: Cytoprotective activity against 6-OHDA induced toxicity in human SH-SY5Y cells assessed as increase in cell viability at […] pretreated for 3 hrs followed by replacement with fresh media and 6-OHDA addition and measured after 24 hrs by MTT assay; assay type: functional, cell-based; settings: dose 0.25 µM
C8-D1A [7] = experiment: Cytoprotective activity against rotenone-induced toxicity in mouse C8D1A cells assessed as increase in cell membrane integrity at […] pretreated for 3 hrs followed by replacement with fresh media and rotenone addition and measured after 24 hrs by cytotox-glo assay; assay type: functional, cell-based; settings: dose 0.25 µM
Astrocyte [8] = experiment: (§2) Cytoprotective activity against 6-OHDA-induced toxicity in human astrocytes assessed as increase in cell viability at […] pretreated for 3 hrs followed by replacement with fresh media and 6-OHDA addition and measured after 24 hrs by MTT assay; assay type: functional, cell-based; settings: dose 0.25 µM
[9] = molecular target: T1, 5-hydroxytryptamine receptor 6; experiment: Inverse agonist activity at human 5HT-6 receptor expressed in human NG108-15 cells coexpressing CAMYEL probe assessed as reduction in constitutive activity of receptor at Gs signaling by measuring reduction in basal cAMP level by BRET analysis; assay type: functional, cell-based; settings: filed as inverse agonist
[10] = molecular target: D(3) dopamine receptor (Homo sapiens) (UniProt P35462); experiment: Binding affinity to D3 receptor (unknown origin) at 1 uM relative to control
[11] = molecular target: Histamine H3 receptor (Homo sapiens) (UniProt Q9Y5N1); experiment: Binding affinity to H3 receptor (unknown origin) at 1 uM relative to control
Astrocyte [12] = experiment: as §1, with “prevention of actin cytoskeleton damage” for “increase in cell viability”, “phalloidin/Hoechst 33342 staining based fluorescence microscopic analysis” for “MTT assay”; assay type: functional, cell-based; settings: dose 0.25 µM
Astrocyte [13] = experiment: as §2, with “prevention of actin cytoskeleton damage” for “increase in cell viability”, “phalloidin/Hoechst 33342 staining based fluorescence microscopic analysis” for “MTT assay”; assay type: functional, cell-based; settings: dose 0.25 µM
[14] = molecular target: Sigma non-opioid intracellular receptor 1 (Homo sapiens) (UniProt Q99720); experiment: Binding affinity to sigma1 receptor (unknown origin) at 1 uM relative to control

| Activity [1] | Kb [2] [nM] | Activity [4] | Activity [9] | Activity [10] [%] | Activity [11] [%] | Activity [14] [%] | SMILES | Activity (Astrocyte [3]) | Activity (Astrocyte [5]) | Activity (PC-12) | Activity (C8-D1A [6]) | Activity (SH-SY5Y) | Activity (C8-D1A [7]) | Activity (Astrocyte [8]) | Activity (Astrocyte [12]) | Activity (Astrocyte [13]) |
| --- | --- | --- | --- | --- | --- | --- | --- | --- | --- | --- | --- | --- | --- | --- | --- | --- |
| Active | 2.1 | Active | – | – | – | – | O=S(=O)(c1cccc(N2CCNCC2)c1)n1cccc1-c1ccccc1 | Active | Active | inactive | Active | inactive | Active | Active | – | – |
| Active | 72.3 | – | – | – | – | – | O=S(=O)(c1ccccc1)n1cccc1-c1cccc(N2CCNCC2)c1 | Active | Active | inactive | Active | inactive | Active | Active | – | – |
| Active | 4.7 | Active | – | 63.3 | 14.5 | 75.5 | O=S(=O)(c1cccc(N2CCNCC2)c1)n1cccc1-c1cccc(F)c1 | Active | Active | inactive | Active | inactive | Active | Active | Active | Active |

Further lines, the compound ahead of its results:

| SMILES | Activity [1] | Kb [2] [nM] | Activity [4] | Activity [9] | Activity [10] [%] | Activity [11] [%] | Activity [14] [%] | Activity (Astrocyte [3]) | Activity (Astrocyte [5]) | Activity (PC-12) | Activity (C8-D1A [6]) | Activity (SH-SY5Y) | Activity (C8-D1A [7]) | Activity (Astrocyte [8]) | Activity (Astrocyte [12]) | Activity (Astrocyte [13]) |
| --- | --- | --- | --- | --- | --- | --- | --- | --- | --- | --- | --- | --- | --- | --- | --- | --- |
| O=S(=O)(c1cccc(NC2CCNCC2)c1)n1cccc1-c1ccccc1 | Active | 16.2 | – | – | – | – | – | – | – | – | – | – | – | – | – | – |
| O=S(=O)(c1cccc(Cl)c1)n1ccc2c(N[C@H]3CCNC3)nc3ccccc3c21 | – | – | – | – | – | – | – | Active | Active | Active | Active | Active | Active | Active | – | – |
| O=C(NC1CCNCC1)c1ccn(S(=O)(=O)c2cccc(Cl)c2)c1-c1cccc(F)c1 | – | – | – | Active | – | – | – | inactive | inactive | inactive | inactive | inactive | inactive | inactive | – | – |
| CN(C)CCn1cc(S(=O)(=O)c2cccc(F)c2)c2cccnc21 | – | – | – | – | – | – | – | inactive | inactive | inactive | inactive | inactive | inactive | inactive | – | – |
| O=S(=O)(c1ccccc1)c1cnc2c(N3CCNCC3)cccc2c1 | – | – | – | – | – | – | – | inactive | inactive | inactive | inactive | inactive | inactive | inactive | – | – |
